Values quoted from earlier work, collected in patent US6410588B1, “Use of cannabinoids as anti-inflammatory agents” (priority 1998, dated 2002).

Amino acid sequences for entries named in this document (tags omitted).
UniProt P21554, whole entry, species assumed: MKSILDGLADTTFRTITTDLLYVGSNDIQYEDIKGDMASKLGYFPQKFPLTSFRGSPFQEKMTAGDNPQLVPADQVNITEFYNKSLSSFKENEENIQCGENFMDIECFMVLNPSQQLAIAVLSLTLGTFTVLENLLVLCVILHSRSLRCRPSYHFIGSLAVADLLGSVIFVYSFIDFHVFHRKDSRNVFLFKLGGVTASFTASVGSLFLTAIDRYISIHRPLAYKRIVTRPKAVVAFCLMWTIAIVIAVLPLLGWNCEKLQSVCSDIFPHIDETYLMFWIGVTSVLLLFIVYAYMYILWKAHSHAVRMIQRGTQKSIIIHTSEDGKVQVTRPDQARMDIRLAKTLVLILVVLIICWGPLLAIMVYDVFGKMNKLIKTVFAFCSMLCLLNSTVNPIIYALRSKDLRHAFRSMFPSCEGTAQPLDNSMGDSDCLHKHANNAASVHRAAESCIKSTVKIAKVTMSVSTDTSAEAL

Biological target: CB1 (Homo sapiens, UniProt P21554)
Settings: cited from earlier work

## C=C(C)[C@@H]1CCC(C)=C[C@H]1c1c(O)cc(CCCCC)cc1O [CBD, Cannabidiol]
  binding to brain receptor CB1: does not bind
